BindingDB's records for doi:10.1021/jm060777o (Abbott Laboratories, 2006)

Protein sequences, listed by entry. Tags and fused reporters are not part of them.
UniProt P27487, whole entry: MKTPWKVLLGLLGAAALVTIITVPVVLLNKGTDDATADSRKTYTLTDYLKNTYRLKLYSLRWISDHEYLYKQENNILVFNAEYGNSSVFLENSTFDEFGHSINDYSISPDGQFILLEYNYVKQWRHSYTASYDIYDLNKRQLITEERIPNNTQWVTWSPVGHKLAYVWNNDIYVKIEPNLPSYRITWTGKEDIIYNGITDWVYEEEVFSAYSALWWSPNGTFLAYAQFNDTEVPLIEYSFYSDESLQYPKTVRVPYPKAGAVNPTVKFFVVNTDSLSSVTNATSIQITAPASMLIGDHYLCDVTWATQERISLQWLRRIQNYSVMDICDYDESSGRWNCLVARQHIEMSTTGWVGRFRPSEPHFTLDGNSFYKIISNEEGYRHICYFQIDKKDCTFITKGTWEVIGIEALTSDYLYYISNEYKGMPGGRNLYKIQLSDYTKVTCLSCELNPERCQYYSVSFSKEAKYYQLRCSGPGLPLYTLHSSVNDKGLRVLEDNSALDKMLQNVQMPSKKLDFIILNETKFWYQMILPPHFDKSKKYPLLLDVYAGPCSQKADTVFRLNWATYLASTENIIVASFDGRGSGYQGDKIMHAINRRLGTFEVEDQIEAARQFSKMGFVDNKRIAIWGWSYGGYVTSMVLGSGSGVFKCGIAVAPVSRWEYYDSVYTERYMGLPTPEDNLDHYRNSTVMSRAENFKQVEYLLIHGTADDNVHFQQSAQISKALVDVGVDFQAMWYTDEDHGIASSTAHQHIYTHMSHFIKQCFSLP

Molecular target: Dipeptidyl peptidase 4 (Homo sapiens, UniProt P27487)

## CCC(C)[C@@H](N)C(=O)N1[C@H](C#N)CC[C@H]1c1ccccc1 (stereo partly drawn) [(2S,5S)-1-[(2R,3R)-2-amino-3-methylpentanoyl]-5-phenylpyrrolidine-2-carbonitrile]
  Ki: > 30 µM
